Measurements published in ChEMBL document CHEMBL3871289, “Design, synthesis and antithrombotic evaluation of novel non-peptide thrombin inhibitors” (Bioorg Med Chem, 2017).

Biological target: Prothrombin (Homo sapiens, UniProt P00734)
Test: Inhibition of human thrombin assessed as reduction in release of free nitroaniline using tosyl-glycyl-prolyl-arginine-4-nitranilide acetate as substrate preincubated for 10 mins followed by substrate addition by spectrophotometer

IC50: 11.7 to 15.5 nM
SMILES: CC1CNc2c(cccc2S(=O)(=O)N[C@@H](CCCNC(=N)N)C(=O)N2CC[C@@H](C)C[C@@H]2C(=O)O)C1 (stereo partly specified) [ARGATROBAN]
